Reference: article PMC9852224

Target: BIM (UniProt O43521)
Assay: FLAG co-immunoprecipitation, immunoblot
Conditions: reference: WT-FLAG-MCL-1; sites T163

“Mcl-1 (from UniProt Q07820) T163A-FLAG-MCL-1” was tested, and the “binding against the reference” value was “lost”.
